Source: patent US20100056637A1, “TREATMENT METHODS USING TRIARYL METHANE COMPOUNDS” (Icagen, Inc., priority 2005, published 2010)

Tests used:
[1] = molecular target: T1, KCa3.1 (Homo sapiens, UniProt O15554); assay: Whole patch clamp of KCa3.1 currents in isolated human lung mast cells (activated by EBIO); type: cell-based; settings: currents activated by EBIO 100 μM, read-out: IC50, inhibition of KCa3.1 K+ channels
[2] = molecular target: T1, KCa3.1; assay: Whole patch clamp of potassium currents in CHO cells stably expressing recombinant human KCa3.1; type: cell-based; settings: currents stimulated by intracellular Ca2+ 1 μM, read-out: IC50, inhibition of KCa3.1 K+ channels

NC(=O)C(c1ccccc1)(c1ccc(F)cc1)c1ccc(F)cc1 [Senicapoc, 2,2-bis(4-fluorophenyl)-2-phenylacetamide]
IC50 [1]: ~6 nM | IC50 [2]: ~6 nM
